Data reported in patent US20060079453A1, “Hla binding peptides and their uses” (priority 2002, published 2006).

Protein sequences, listed by entry. Tags and fused reporters are not part of them. Residues count along the entry.
UniProt P01889, 25-362: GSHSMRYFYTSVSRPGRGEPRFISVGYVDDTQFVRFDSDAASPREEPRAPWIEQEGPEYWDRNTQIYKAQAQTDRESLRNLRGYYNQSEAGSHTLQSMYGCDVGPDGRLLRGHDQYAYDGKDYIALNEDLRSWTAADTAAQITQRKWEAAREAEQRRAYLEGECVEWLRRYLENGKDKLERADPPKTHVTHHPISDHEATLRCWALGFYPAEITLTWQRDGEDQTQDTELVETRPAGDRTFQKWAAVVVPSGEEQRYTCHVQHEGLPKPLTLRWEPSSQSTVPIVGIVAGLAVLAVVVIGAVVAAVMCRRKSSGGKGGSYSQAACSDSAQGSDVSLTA

Experiments:
HLA-A*0301 = HLA-A*0301 (Homo sapiens, UniProt P04439); assay: biochemical; format: binding
HLA-A*1101 = HLA-A*1101 (Homo sapiens, UniProt P04439, A114D/D185E/E176A/F33Y/L180Q/S129P/T187R); assay: biochemical; format: binding
HLA-A*6801 = HLA-A*6801 (Homo sapiens, UniProt P04439, A269V/D185E/E176V/E277Q/E87N/F33Y/G231S/I121M/I166T/I218V/L180W/L300P/L318F/N151K/P208A/P217A/Q86R/R169H/T345S); assay: biochemical; format: binding
HLA-A*3301 = HLA-A*3301 (Homo sapiens, UniProt P04439, A270S/D185E/E176V/E277Q/E87N/F33T/G231S/H175R/I121M/I218V/I322F/K168Q/K210R/L300P/L318F/M331R/P217A/Q86R/Q94H/R138Q/T323A/T345S/T97I/V358M/Y195H); assay: biochemical; format: binding
HLA-A*0202 = HLA-A*0202 (Homo sapiens, UniProt P04439, D140Y/D185E/D98H/E176V/E277Q/G131W/G231S/I119L/I121R/I166T/I218V/L180W/L300P/L318F/N151K/N90K/P208A/P217A/Q67R/Q86G/Q94H/R138H/R169H/T345S); assay: biochemical; format: binding
HLA-A*0206 = HLA-A*0206 (Homo sapiens, UniProt P04439, D140Y/D185E/D98H/E176V/E277Q/F33Y/G131W/G231S/I119V/I121R/I166T/I218V/L300P/L318F/N151K/N90K/P208A/P217A/Q86G/Q94H/R138H/R169H/T345S); assay: biochemical; format: binding
HLA-A*6802 = HLA-A*6802 (Homo sapiens, UniProt P04439, A269V/D140Y/D185E/E176V/E277Q/E87N/F33Y/G231S/I121R/I166T/I218V/L180W/L300P/L318F/N151K/P208A/P217A/Q86R/R138H/R169H/S129P/T345S/V36M); assay: biochemical; format: binding; settings: A*6802 binding affinity (expressed as an IC50)
HLA-B*0702 = HLA-B*0702 (Homo sapiens, UniProt P01889); assay: biochemical; settings: B*0702 binding affinity (IC50)
HLA-A*0201 = HLA-A*0201 (Homo sapiens, UniProt P04439, D140Y/D185E/D98H/E176V/E277Q/G131W/G231S/I119V/I121R/I166T/I218V/L300P/L318F/N151K/N90K/P208A/P217A/Q86G/Q94H/R138H/R169H/T345S); assay: biochemical; format: binding
HLA-A*0203 = HLA-A*0203 (Homo sapiens, UniProt P04439, A173T/D140Y/D185E/D98H/E277Q/G131W/G231S/I119V/I121R/I166T/I218V/L180W/L300P/L318F/N151K/N90K/P208A/P217A/Q86G/Q94H/R138H/R169H/T345S); assay: biochemical; format: binding
HLA-A*3101 = HLA-A*3101 (Homo sapiens, UniProt P04439, A270S/D185E/E176V/E277Q/F33T/G231S/G80R/H175R/I121M/I218V/I322F/K168Q/L300P/L318F/M331R/P217A/Q94H/R138Q/T323A/T345S/T97I/V358M); assay: biochemical; format: binding
HLA-DR DRB1*0802 (DR8) = HLA-DR DRB1*0802 (DR8) (Homo sapiens, UniProt P01903+P01911, A100R/A103L/A169T/F76Y/H45Y/I96F/K41T/L162R/M171V/P40S/Q125H/Q178H/Q39Y/Q99D/R218S/R42G/S66Y/V115G/W38E); assay: biochemical; format: binding
[1] = target: HLA-DQ DQA1*0501/B*0201 (DQ2) (Homo sapiens, UniProt P01909+P01920, A45G/A70V/D89A/E106A/E77G/E98D/H199R/L107V/N214S/P84L/P87L/T103K/T109R/T172A/T60S/V78E/V99I/Y58L/Y62S/Y69I/Y79F); assay: biochemical
[2] = target: HLA-DQ DQA1*0301/B*0302 (DQ8) (Homo sapiens, UniProt P01909+P01920, A209T/A45G/C70Q/D89A/DUP78-78/E183D/E77G/F237L/G63E/H199R/I129T/K197E/L178F/L74F/L98V/Q57E/Q76R/S185I/S97I/T217I/T49S/V73L/Y58L); assay: biochemical
[3] = target: HLA-DQ DQA1*0301/B*0301 (DQ7) (Homo sapiens, UniProt P01909+P01920, A209T/C70Q/DUP78-78/E183D/F237L/G63E/I129T/K197E/L178F/L74F/L98V/Q57E/Q76R/S185I/S97I/T49S/V73L); assay: biochemical; format: binding
HLA-A*0101 = HLA-A*0101 (Homo sapiens, UniProt P04439, A114D/A174V/A182V/D101N/D185E/E176A/E190D/L180R/Q94H/R68K/S129P/T187R/V100A/V91M/W191G); assay: biochemical; settings: Binding affinity to A*0101 (expressed as an IC50)
HLA-A*2301 = HLA-A*2301 (Homo sapiens, UniProt P04439, D101N/D140Y/D185E/E176V/E190D/F33S/G103R/G107R/H175R/I119L/I121M/I306V/K168Q/K335N/L105A/L300P/N151K/N90K/P307H/Q86E/Q94H/R106L/R138H/R89G/T104I/T345S/V100E/W191G/Y123F); assay: biochemical; format: binding
HLA-A*2402 = HLA-A*2402 (Homo sapiens, UniProt P04439, D101N/D140Y/D185E/E176V/E190D/F33S/G103R/G107R/I119L/I121M/I306V/K335N/L105A/L180Q/L300P/N151K/N90K/Q86E/Q94H/R106L/R138H/R89G/T104I/T345S/V100E/W191G/Y123F); assay: MHC molecular binding / Capture assay, IC50: A*2402; settings: read-out: A*2402 binding affinity (IC50)
HLA-A*2902 = HLA-A*2902 (Homo sapiens, UniProt P04439, A270S/D101N/D185E/E176V/E277Q/E87Q/F33T/G231S/H175R/I121M/I218V/I322F/K168Q/L300P/L318F/M331R/P208A/P217A/Q86L/T323A/T345S/V100A/V358M); assay: MHC molecular binding / Capture assay, IC50: A*2902; settings: read-out: A*2902 binding affinity (IC50)
HLA-A*3002 = HLA-A*3002 (Homo sapiens, UniProt P04439, D101N/D140H/D185E/E176R/F33S/G80R/H175R/K168Q/Q94H/R138E/R41S/V100E); format: binding; settings: read-out: A*3002 binding affinity (IC50)
[4] = A*0202 binding affinity (expressed as an IC50)
[5] = A*0206 binding affinity (expressed as an IC50)
[6] = A*0201 binding affinity (expressed as an IC50)
[7] = A*0203 binding affinity (expressed as an IC50)

`C[C@H](N)C(=O)N[C@@H](C)C(=O)N[C@@H](Cc1ccc(O)cc1)C(=O)N[C@@H](C)C(=O)N[C@@H](C)C(=O)N[C@@H](CCC(N)=O)C(=O)NCC(=O)N[C@@H](Cc1ccc(O)cc1)C(=O)N[C@@H](CCCCN)C(=O)O` showed a pIC50 (HLA-A*0301) of 7.74, a pIC50 (HLA-A*1101) of 7.74 and a pIC50 (HLA-A*6801) of 7.47. For the same compound, the pIC50 (HLA-A*3301) was 4.85.

Work on `CC(C)C[C@H](NC(=O)[C@@H](NC(=O)[C@@H]1CCCN1C(=O)[C@H](Cc1ccccc1)NC(=O)[C@H](Cc1ccccc1)NC(=O)CNC(=O)[C@H](Cc1c[nH]c2ccccc12)NC(=O)[C@H](CC(C)C)NC(=O)[C@H](C)N)C(C)C)C(=O)O` yielded a pIC50 (HLA-A*0202; [4]) of 9.13, a pIC50 (HLA-A*0206; [5]) of 7.82 and a pIC50 (HLA-A*6802) of 5.82.

`C[C@H](N)C(=O)N1CCC[C@H]1C(=O)NCC(=O)N1CCC[C@H]1C(=O)NCC(=O)N1CCC[C@H]1C(=O)NCC(=O)N[C@@H](C)C(=O)N[C@@H](C)C(=O)N1CCC[C@H]1C(=O)N[C@@H](C)C(=O)O` gave a pIC50 (HLA-B*0702) of 5.95.

`CC[C@H](C)[C@H](NC(=O)[C@H](CS)NC(=O)[C@H](CC(C)C)NC(=O)[C@@H]1CCCN1C(=O)[C@@H](NC(=O)[C@H](CC(C)C)NC(=O)[C@@H](N)CCCCN)[C@@H](C)O)C(=O)N[C@H](C(=O)N[C@@H](CC(C)C)C(=O)O)[C@@H](C)O` was tested, and the pIC50 (HLA-A*0201; [6]) was 8.77, the pIC50 (HLA-A*0206; [5]) was 8.77 and the pIC50 (HLA-A*6802) was 5.04. The pIC50 (HLA-A*0203; [7]) was 7.64.

Work on `CC(C)C[C@H](NC(=O)[C@H](CCCCN)NC(=O)[C@H](Cc1ccccc1)NC(=O)[C@H](CS)NC(=O)[C@H](Cc1c[nH]c2ccccc12)NC(=O)CNC(=O)[C@H](Cc1ccccc1)NC(=O)[C@H](CC(C)C)NC(=O)[C@@H](N)CC(C)C)C(=O)O` yielded a pIC50 (HLA-A*0202) of 8.39, a pIC50 (HLA-A*0201) of 7.74 and a pIC50 (HLA-A*0206) of 6.47. It also gave a pIC50 (HLA-A*0203) of 6.70.

Compound `CC[C@H](C)[C@H](NC(=O)[C@H](Cc1ccc(O)cc1)NC(=O)[C@H](CC(C)C)NC(=O)[C@@H](N)CC(C)C)C(=O)N[C@@H](CC(C)C)C(=O)N[C@@H](Cc1ccccc1)C(=O)N[C@@H](CC(C)C)C(=O)N[C@H](C(=O)N[C@@H](CCCCN)C(=O)O)C(C)C` has a pIC50 (HLA-A*0301) of 7.89, a pIC50 (HLA-A*6801) of 5.26 and a pIC50 (HLA-A*3101) of 4.04.

For `CSCC[C@H](N)C(=O)N[C@@H](CC(C)C)C(=O)N[C@@H](CC(C)C)C(=O)N[C@@H](CCCNC(=N)N)C(=O)N[C@@H](CC(C)C)C(=O)N[C@@H](CO)C(=O)N[C@@H](CCC(=O)O)C(=O)N1CCC[C@H]1C(=O)N[C@H](C(=O)O)C(C)C`, the pIC50 (HLA-A*0202; [4]) was 7.54, the pIC50 (HLA-A*0201; [6]) was 7.33 and the pIC50 (HLA-A*0206; [5]) was 6.16. It also gave a pIC50 (HLA-A*6802) of 6.36 and a pIC50 (HLA-A*0203; [7]) of 7.32.

`CC[C@H](C)[C@H](NC(=O)[C@@H](NC(=O)[C@H](CCCNC(=N)N)NC(=O)[C@H](CC(C)C)NC(=O)[C@@H]1CCCN1C(=O)[C@H](C)NC(=O)[C@H](C)NC(=O)[C@H](CO)NC(=O)[C@H](C)NC(=O)[C@H](C)NC(=O)[C@H](CC(=O)O)NC(=O)[C@@H]1CCCN1C(=O)[C@@H]1CCCN1)[C@@H](C)O)C(=O)N[C@H](C(=O)N[C@@H](C)C(=O)O)[C@@H](C)O` was tested, and the pIC50 (HLA-DR DRB1*0802 (DR8)) was less than 4.20, the pIC50 [1] was 5.44 and the pIC50 [2] was 5.41. For the same compound, the pIC50 [3] was 7.70.

`CC(C)C[C@H](NC(=O)[C@H](CC(N)=O)NC(=O)[C@@H]1CCCN1C(=O)[C@H](CC(=O)O)NC(=O)[C@@H](NC(=O)[C@@H]1CCCN1)C(C)C)C(=O)N[C@@H](CCC(=O)O)C(=O)N1CCC[C@H]1C(=O)N[C@@H](Cc1ccc(O)cc1)C(=O)O` showed a pIC50 (HLA-A*0101) of 6.71.

With `CC[C@H](C)[C@H](NC(=O)[C@H](CCCCN)NC(=O)[C@H](CO)NC(=O)[C@H](CC(C)C)NC(=O)[C@H](Cc1ccccc1)NC(=O)[C@@H](N)CCCNC(=N)N)C(=O)N[C@@H](CO)C(=O)N[C@@H](CCC(=O)O)C(=O)N[C@@H](Cc1ccc(O)cc1)C(=O)O` the pIC50 (HLA-A*0101) was less than 4.39 and the pIC50 (HLA-A*2301) was 6.92.

`CC(C)C[C@H](NC(=O)[C@H](CO)NC(=O)[C@@H]1CCCN1C(=O)[C@H](C)NC(=O)[C@H](CO)NC(=O)[C@H](CC(C)C)NC(=O)[C@H](CCC(N)=O)NC(=O)[C@@H](N)CO)C(=O)N[C@@H](CCCCN)C(=O)O` gave a pIC50 (HLA-A*1101) of 7.60, a pIC50 (HLA-A*6801) of 5.42 and a pIC50 (HLA-A*3301) of less than 3.91. The pIC50 (HLA-A*3101) was 5.89.

Compound `CC(C)C[C@H](NC(=O)[C@@H](NC(=O)CNC(=O)[C@@H]1CCCN1C(=O)CNC(=O)[C@@H]1CCCN1C(=O)CNC(=O)[C@H](CCCCN)NC(=O)[C@H](C)NC(=O)[C@H](CC(C)C)NC(=O)[C@@H](N)C(C)C)[C@@H](C)O)C(=O)O` has a pIC50 (HLA-A*0206; [5]) of 4.94.

Compound HLNIPIGFK has a pIC50 (HLA-A*0301; read-out: A*0301 binding affinity (IC50)) of 8.64, a pIC50 (HLA-A*1101; read-out: A*1101 binding affinity (IC50)) of 8.89 and a pIC50 (HLA-A*6801; read-out: A*6801 binding affinity (IC50)) of 8.55. For the same compound, the pIC50 (HLA-A*3101; read-out: A*3101 binding affinity (IC50)) was 6.74.

For PYAVCRVCLLF, the pIC50 (HLA-A*2402) was 6.65.

RFHNIIRGRW gave a pIC50 (HLA-A*2402) of 4.27, a pIC50 (HLA-A*2902) of 7.74 and a pIC50 (HLA-A*3002) of 7.24.

pIC50: −log10 of the molar value. Like-named read-outs stand apart in the source and are kept apart here.
